# Test results from patent publication US20230003721A1, “MITOTHERAPEUTICS FOR THE TREATMENT OF BRAIN DISORDERS” (The University of Florida Research Foundation, Inc., priority 2019, published 2023).
# Test system: primary forebrain neurons
# Assay: Live-Dead assay (propidium iodide / fluorescein diacetate)
# Conditions: 48 h; peroxide 75 μM, glutamate 25 μM, Aβ(1-42) 10 μM
structure (smiles),measurement,value
"CC(C)(C)OO [Peroxide, tert-butyl hydroperoxide]",death among neurons compared to control,46%
